For the test, the target named is T1, glutathione S-transferase (GST)-MAPK6 fusion protein (human).
T1 construct: MAPK6, human; CDS PCR amplified with primers from the start codon to the stop codon and cloned into the GTK3XF vector between EcoRI and Sal I; Major band of around 130 kDa by Coomassie
In words: pull-down; purified GST-MAPK6 or GST as bait, commercially available purified AKT1 protein as prey. The following applies: both partners purified.

B1: commercially available purified AKT1 protein (enzyme, UniProt P31749 1-480, looked up)
chain: MSDVAIVKEGWLHKRGEYIKTWRPRYFLLKNDGTFIGYKERPQDVDQREAPLNNFSVAQCQLMKTERPRPNTFIIRCLQWTTVIERTFHVETPEEREEWTTAIQTVADGLKKQEEEEMDFRSGSPSDNSGAEEMEVSLAKPKHRVTMNEFEYLKLLGKGTFGKVILVKEKATGRYYAMKILKKEVIVAKDEVAHTLTENRVLQNSRHPFLTALKYSFQTHDRLCFVMEYANGGELFFHLSRERVFSEDRARFYGAEIVSALDYLHSEKNVVYRDLKLENLMLDKDGHIKITDFGLCKEGIKDGATMKTFCGTPEYLAPEVLEDNDYGRAVDWWGLGVVMYEMMCGRLPFYNQDHEKLFELILMEEIRFPRTLGPEAKSLLSGLLKKDPKQRLGGGSEDAKEIMQHRFFAGIVWQHVYEKKLSPPFKPQVTSETDTRYFDEEFTAQMITITPPDQDDSMECVDSERRPHFPQFSYSASGTA
notes: AKT1, bought as purified protein; The catalogue number and the His tag are told for the in vitro kinase assay; That both are the same product is surmised
On to B1, for which the binding result is listed as “binds”.

(Values after article PMC8589317, “MAPK6-AKT signaling promotes tumor growth and resistance to mTOR kinase blockade” (Science Advances, 2021).)
